# Only a part is listed here, and it is no random draw. Some salts or complexes appear as unconnected parts, following the source record. The source made the active and inactive calls. No stated cut-off is given here; in the data, active means normalized activity above about 1.9%; inactive means the rest.
# The chains behind the UniProt entries cited, without tags or fusion partners. Where a name states a change or a piece, a line headed by the entry shows the natural chain unless it says otherwise.
# UniProt Q969H0, whole entry, stated change not applied: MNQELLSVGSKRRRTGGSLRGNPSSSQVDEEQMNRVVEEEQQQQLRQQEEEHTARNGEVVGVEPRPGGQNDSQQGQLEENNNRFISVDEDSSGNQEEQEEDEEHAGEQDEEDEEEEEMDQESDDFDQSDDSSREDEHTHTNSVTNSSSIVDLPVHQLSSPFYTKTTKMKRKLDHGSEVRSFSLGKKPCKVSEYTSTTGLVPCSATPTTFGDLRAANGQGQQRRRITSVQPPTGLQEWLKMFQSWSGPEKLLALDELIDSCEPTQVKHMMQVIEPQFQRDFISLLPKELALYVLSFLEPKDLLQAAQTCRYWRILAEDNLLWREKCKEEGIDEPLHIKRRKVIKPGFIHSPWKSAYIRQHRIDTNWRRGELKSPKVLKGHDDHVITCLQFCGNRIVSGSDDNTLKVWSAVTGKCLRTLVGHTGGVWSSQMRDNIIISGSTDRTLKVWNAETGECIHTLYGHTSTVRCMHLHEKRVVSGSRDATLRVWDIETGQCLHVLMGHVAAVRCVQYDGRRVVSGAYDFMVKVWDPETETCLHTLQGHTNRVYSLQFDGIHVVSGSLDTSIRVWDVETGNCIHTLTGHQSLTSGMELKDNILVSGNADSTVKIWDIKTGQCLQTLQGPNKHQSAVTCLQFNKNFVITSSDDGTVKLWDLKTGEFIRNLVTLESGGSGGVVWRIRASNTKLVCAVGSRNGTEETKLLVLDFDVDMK
# Target: F-box/WD repeat-containing protein 7 (Homo sapiens) (UniProt Q969H0)
# Test: FBW7 E3 ligase activators, primary screen, biochemical, AlphaScreen, human (AID 1259310);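 further: purified mutant Fbw7 with reduced substrate affinity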
# Settings: AlphaScreen FBW7–phospho-cyclin E peptide binding, activator screen; at 26.1 µM; active compounds read high
row,SMILES,normalized activity (activation)
1,CP(=O)(O)Oc1cccc(Cl)c1Cl,inactive: 0.08%
2,Cc1cc(-c2cccc3ccccc23)c(C)cn1.O=[N+]([O-])c1cc([N+](=O)[O-])c(O)c([N+](=O)[O-])c1,inactive: 0.45%
3,O=[N+]([O-])c1cc([N+](=O)[O-])c(NCC2CCS(=O)(=O)C2)c([N+](=O)[O-])c1 (centres undefined),inactive: 0.73%
4,O=[N+]([O-])c1cc([N+](=O)[O-])c(Nc2c([N+](=O)[O-])cc([N+](=O)[O-])cc2[N+](=O)[O-])c([N+](=O)[O-])c1,inactive: -0.06%
5,CN(C)CCOC(=O)C(O)(c1ccccc1)C1CCCCC1 (centres undefined),inactive: 0.61%
6,COc1ccc(NP(C)(=O)Oc2ccccc2OC)cc1 (centres undefined),inactive: -0.18%
7,CC(=O)OC1(C#N)CN2CCC1CC2 (centres undefined),inactive: -0.06%
8,C=CCN1CCN(CCOC(=O)C(O)(c2ccccc2)c2ccccc2)CC1,inactive: -0.13%
9,O=[N+]([O-])c1ccc(Nc2c([N+](=O)[O-])cc([N+](=O)[O-])cc2[N+](=O)[O-])cc1,inactive: -0.62%
10,Cc1ccccc1NP(C)(=O)Nc1ccccc1C,inactive: 0.05%
11,COC(=O)Nc1nc2ccccc2[nH]1.O=C1CCCN1c1ccc(S(=O)(=O)O)cc1[N+](=O)[O-],inactive: 0.16%
12,CCN(CC)c1c([N+](=O)[O-])cc([N+](=O)[O-])cc1[N+](=O)[O-],inactive: -0.15%
13,CP(=O)(Nc1ccc2c(c1)OCCO2)Oc1ccccc1 (centres undefined),inactive: 0.24%
14,[N-]=[N+]=NCN1c2nonc2N(CN=[N+]=[N-])c2nonc21,inactive: -0.21%
15,Cc1ccc(Cl)c(OP(C)(=O)Nc2ccc(F)cc2)c1 (centres undefined),inactive: -0.16%
16,Cc1c([N+](=O)[O-])c(C)c([N+](=O)[O-])c(C)c1[N+](=O)[O-],inactive: 0.34%
17,CP(=O)(O)OC(c1ccccc1)C(F)(F)C(F)(F)F (centres undefined),inactive: 0.6%
18,COc1ccc(OP(C)(=O)Nc2ccccc2)cc1 (centres undefined),inactive: -0.14%
19,CP(=O)(Nc1cccnc1)Oc1ccc(Cl)cc1 (centres undefined),inactive: 0.16%
20,Cc1cc([N+](=O)[O-])c(NCC(C)([N+](=O)[O-])[N+](=O)[O-])c([N+](=O)[O-])c1[N+](=O)[O-],inactive: 0.04%
21,O=C(OCCN1CCN(CCOCc2ccccc2)CC1)C(O)(c1ccccc1)c1ccccc1,inactive: 0.05%
22,CP(=O)(Nc1ccccc1F)Oc1ccccc1 (centres undefined),inactive: -0.09%
23,C=CCNc1c([N+](=O)[O-])cc([N+](=O)[O-])c(C)c1[N+](=O)[O-],inactive: -0.16%
24,CCP1(=O)Oc2cc(C(C)(C)C)cc(C(C)(C)C)c2O1 (centres undefined),inactive: 0.16%
25,Nc1c([N+](=O)[O-])cc([N+](=O)[O-])c2nonc12,inactive: -0.04%
26,CP(=O)(Nc1ccccc1)Oc1ccc(F)cc1 (centres undefined),inactive: -0.03%
27,Cc1ccc(NP(C)(=O)Oc2ccc(Cl)cc2)cc1 (centres undefined),inactive: 0.99%

row,SMILES,normalized activity (activation)
1,CP(=O)(O)OC(c1ccccc1)C(Cl)(Cl)Cl (centres undefined),inactive: 0.5%
2,COc1cc2c(cc1NP(C)(=O)Oc1ccccc1)oc1ccccc12 (centres undefined),inactive: -0.05%
3,CCOC(=O)c1ccc(NP(C)(=O)Oc2ccc(F)cc2)cc1 (centres undefined),inactive: -0.18%
4,Cc1ccc(Cl)c(OP(C)(=O)Nc2cccnc2)c1 (centres undefined),inactive: -0.02%
5,O=C(c1c([N+](=O)[O-])cc([N+](=O)[O-])cc1[N+](=O)[O-])N1CCOCC1,inactive: -0.13%
6,CP(=O)(Nc1ccc(Cl)cc1Cl)Oc1ccccc1 (centres undefined),inactive: 0.03%
7,O=[N+]([O-])c1cc([N+](=O)[O-])c(N2CCCCCC2)c([N+](=O)[O-])c1,inactive: -0.45%
8,CP(=O)(OCCOc1ccccc1)OCCOc1ccccc1,inactive: 0.01%
9,COCC(CN(C)[N+](=O)[O-])O[N+](=O)[O-] (centres undefined),inactive: -0.1%
10,Cc1cccc(C)c1OP(C)(=O)Nc1ccccc1 (centres undefined),inactive: 0.09%
11,COc1ccccc1OP(C)(=O)Nc1ccc(C)c(C)c1 (centres undefined),inactive: -0.1%
12,COc1ccc(OP(C)(=O)Nc2ccccc2Br)cc1 (centres undefined),inactive: 0.35%
13,CCCCOc1ccc(NP(C)(=O)Oc2ccccc2OC)cc1 (centres undefined),inactive: -0.08%
14,C/C1=C2N=C(/C=C3N=C(/C(C)=C4\[N-][C@@](C)([C@@H]5N=C1[C@](C)(CCC(=O)NC[C@@H](C)OP(=O)(O)O[C@H]1[C@@H](O)[C@@H](n6cnc7cc(C)c(C)cc76)O[C@@H]1CO)[C@H]5CC(N)=O)[C@@](C)(CC(N)=O)[C@@H]4CCC(N)=O)[C@@](C)(CC(N)=O)[C@@H]\3CCC(N)=O)C(C)(C)[C@@H]/2CCC(N)=O.[C-]#N.[Co+3],inactive: -0.41%
15,CP(=O)(Nc1ccc(F)cc1)Oc1ccc(Cl)cc1 (centres undefined),inactive: -0.34%
16,CC(CN(C)C)OC(=O)C(O)(c1ccccc1)c1ccccc1 (centres undefined),inactive: 0.2%
17,Cc1c(NP(C)(=O)Oc2ccc(C(C)C)cc2)c(=O)n(-c2ccccc2)n1C (centres undefined),inactive: 1.15%
18,CCOP(C)(=S)SCN(CC(=O)O)C(=O)OCc1ccccc1 (centres undefined),inactive: 0.04%
19,Nc1c([N+](=O)[O-])cc([N+](=O)[O-])c(Nc2ccccc2C(=O)O)c1[N+](=O)[O-],inactive: 0.72%
20,O=[N+]([O-])c1cc([N+](=O)[O-])c(Nc2ccccn2)c([N+](=O)[O-])c1,inactive: -0.5%
21,COc1ccc(OP(C)(=O)Nc2ccccn2)cc1 (centres undefined),inactive: -0.08%
22,CCN(CC)CCOC(=O)C(O)(c1ccccc1)C1CCCCC1 (centres undefined),inactive: 0.29%
23,CN(C)CCOC(=O)C(O)(c1ccccc1)C1CCCC1 (centres undefined),inactive: -0.27%
24,CN(C)c1c([N+](=O)[O-])cc([N+](=O)[O-])c(N(C)C)c1[N+](=O)[O-],inactive: -0.11%
25,NC(=O)c1c([N+](=O)[O-])cc([N+](=O)[O-])cc1[N+](=O)[O-],inactive: 0.04%
26,COc1ccccc1OP(C)(=O)Nc1ccc(Br)cc1 (centres undefined),inactive: 0.01%
27,CN(C)C(=O)c1c([N+](=O)[O-])cc([N+](=O)[O-])cc1[N+](=O)[O-],inactive: -0.02%

# Source: PubChem BioAssay AID1259310 (The Scripps Research Institute Molecular Screening Center, 2017)
